Measurements: ChEMBL document CHEMBL4765435, “Synthesis and in vitro anti-bladder cancer activity evaluation of quinazolinyl-arylurea derivatives” (Eur J Med Chem, 2020)

Experiments:
T-24 [1] = assay: Induction of apoptosis in human T-24 cells assessed as late apoptotic cells at 3 uM in presence of vZAD incubated for 8 hrs by annexin V-FITC and PI staining based flow cytometry analysis (reference value: 1.71 %); assay type: functional
T-24 [2] = assay: Induction of apoptosis in human T-24 cells assessed as necrotic cells at 3 uM in presence of vZAD incubated for 8 hrs by annexin V-FITC and PI staining based flow cytometry analysis (reference value: 0.84 %); assay type: functional
[3] = Selectivity index, ratio of IC50 for cytotoxicity against human HCV-29 cells to IC50 for cytotoxicity against human T-24 cells
Outline: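 SI is the ratio of IC50 in the non-tumoral cell line to IC50 in the tumoral T24 line, both from proliferation-inhibition assays.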

SMILES: Nc1ccn([C@@H]2O[C@H](CO)[C@@H](O)C2(F)F)c(=O)n1 [GEMCITABINE]
- Activity (T-24 [1]): 5.25%
- Activity (T-24 [2]): 3.92%
- Ratio IC50 [3]: 2.12
